Test in all cases: Cell viability assay (MTS), relative cell survival
Conditions in all cases: dose range, 4 h + 44 h incubation

The test system of assay [1] is BT474-TR (trastuzumab-resistant human breast cancer) cells. The class given is cell-based. How it is done: (§1) BT474 (human breast cancer) cells, BT474-TR (trastuzumab-resistant human breast cancer) cells, SKBR3 (human breast cancer) cells, and SKBR3-TR (trastuzumab resistant breast cancer) cells were incubated with various concentrations of Eos-001, trastuzumab, or combination trastuzumab and pertuzumab. The concentration of Eos-001 is reported in μM doxorubicin, and the concentration of trastuzumab or pertuzumab is reported in μM antibody. The cells per well were plated in black-walled, clear-bottom, 96-well plates. […] At the conclusion of the incubation, relative cell viability was determined via MTS assay (Promega) according to manufacturer's instructions. […] The plate was then incubated with rocking at 37° C. and 5% CO2 and readings were taken of the plate at 1, 2, and 3 hours at 490 nm using a spectrophotometer. […]
Trastuzumab or pertuzumab treatment of BT474-TR cells was compared to treatment with Eos-001, a combined treatment with Eos-001 and pertuzumab, or Eos-001 after 4 hours of pertuzumab pretreatment. […] At the conclusion of the incubation, relative cell viability was determined via MTS assay (Promega) according to manufacturer's instructions. […] The plate was then incubated with rocking at 37° C. and 5% CO2 and readings were taken at 490 nm using a spectrophotometer. […]

The test system of assay [2] is SKBR3 (human breast cancer) cells. Format: cell-based. As for the experimental part:
as §1, with “plates. 48 hours later, the media was aspirated and replaced with complete media and the indicated concentrations of Eos-001, trastuzumab (Tz), or a combination of trastuzumab and pertuzumab (Tz+Pz), or an untreated control at a total volume of 40 μL.” for “plates.”
(§2) To verify the contribution of HER3 targeted toxicity of the Eos-001 nanoparticles, a HER3 peptide was used as a competitive inhibitor. […] Cell survival was measured after 48 hours, and compared to cells treated with a mock saline. […]

Assay [3] has as its system SKBR3-TR (trastuzumab resistant breast cancer) cells. The class given is cell-based, human. How it is done: as §1, with “plates. 48 hours later, the media was aspirated and replaced with complete media and the indicated concentrations of Eos-001, trastuzumab (Tz), or a combination of trastuzumab and pertuzumab (Tz+Pz), or an untreated control at a total volume of 40 μL.” for “plates.”
as §2

The test system of assay [4] is BT474 (human breast cancer) cells. The class given is cell-based. As for the experimental part: (§3) Plates were rocked for 4 hours at 37° C. and 5% CO2 and then 60 μL of complete media was added to each well to bring the total volume to 100 μL and the incubation was continued, without rocking, for 44 hours at 37° C. and 5% CO2. At the conclusion of the incubation, relative cell viability was determined via MTS assay (Promega) according to manufacturer's instructions. Specifically, the media was removed from the wells and 100 μL of fresh complete media was added to each well. 20 μl of the prepared MTS reagent was added to each well. The plate was then incubated with rocking at 37° C. and 5% CO2 and readings were taken of the plate at 1, 2, and 3 hours at 490 nm using a spectrophotometer.
as §3, with “The cells per well were plated in black-walled, clear-bottom, 96-well plates. […] Plates” for “Plates”, “Specifically, the media was removed from the wells and 100 μL of fresh complete media was added to each well. 20 μl of the prepared MTS reagent was added to each well.” left out, “spectrophotometer. […]” for “spectrophotometer.”

Data on one substance can be found in patent US20250255978A1, “DRUG-DELIVERY NANOPARTICLES AND TREATMENTS FOR DRUG-RESISTANT CANCER” (Cedars-Sinai Medical Center, priority 2016, published 2025).

For trastuzumab, the “killing of BT474-TR cells” value in assay [1] is “not the BT474-TR cells”. In addition, in assay [2], the “killing of SKBR3 cells” value was “Neither trastuzumab nor the combination of trastuzumab and pertuzumab were effective”. For the same substance, in assay [3], the “killing of SKBR3-TR cells” value was “Neither trastuzumab nor the combination of trastuzumab and pertuzumab were effective”. In assay [4], the “effect on survival / killing of BT474 cells” value is “effective in killing BT474 cells”.
